According to patent US12202815B2 (dated 2025):
Where two headings read alike, the source gives them in different places.

Tests used:
AR = target: T1, AR (Rattus norvegicus, UniProt P15207); conditions: 20 mg/kg
T1 sequence (P15207 1-902): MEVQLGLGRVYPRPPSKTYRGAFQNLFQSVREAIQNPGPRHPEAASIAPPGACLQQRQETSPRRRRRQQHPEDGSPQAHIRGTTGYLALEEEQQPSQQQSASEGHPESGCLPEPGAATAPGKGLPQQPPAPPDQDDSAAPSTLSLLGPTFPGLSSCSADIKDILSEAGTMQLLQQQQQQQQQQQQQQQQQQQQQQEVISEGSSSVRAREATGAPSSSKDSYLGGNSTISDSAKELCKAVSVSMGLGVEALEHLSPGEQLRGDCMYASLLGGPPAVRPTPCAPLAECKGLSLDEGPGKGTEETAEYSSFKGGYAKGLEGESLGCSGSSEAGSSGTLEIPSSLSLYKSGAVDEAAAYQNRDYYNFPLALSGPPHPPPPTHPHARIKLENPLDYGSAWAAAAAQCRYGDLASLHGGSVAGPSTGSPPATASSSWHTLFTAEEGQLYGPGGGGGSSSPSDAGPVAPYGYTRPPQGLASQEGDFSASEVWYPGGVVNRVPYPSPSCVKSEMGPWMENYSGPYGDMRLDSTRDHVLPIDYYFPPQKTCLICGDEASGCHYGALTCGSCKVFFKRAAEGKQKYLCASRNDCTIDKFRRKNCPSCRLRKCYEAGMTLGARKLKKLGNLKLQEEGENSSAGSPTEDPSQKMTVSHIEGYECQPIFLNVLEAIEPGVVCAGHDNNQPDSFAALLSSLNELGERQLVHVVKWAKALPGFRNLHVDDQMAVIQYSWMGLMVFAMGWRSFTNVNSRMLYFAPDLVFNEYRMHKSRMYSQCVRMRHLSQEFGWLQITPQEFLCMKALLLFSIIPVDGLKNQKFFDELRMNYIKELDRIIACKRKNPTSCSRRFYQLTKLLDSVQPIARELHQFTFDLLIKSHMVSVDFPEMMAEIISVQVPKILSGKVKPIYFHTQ

full length AR = experiment: LNCaP or AD1 degradation (AR FL), Western blot; assay type: cell-based

## C[C@](O)(Cn1cc(Cl)cn1)C(=O)Nc1ccc(C#N)c(C(F)(F)F)c1 [Compound 1049]
AR; prostate weight vs intact vehicle treated rats
  (Prostate) % diff: −20%
AR; seminal vesicles weight vs intact vehicle treated rats
  (S.V.) % diff: −65%

## C[C@](O)(Cn1cc(Br)c(F)n1)C(=O)Nc1ccc(C#N)c(C(F)(F)F)c1 [Compound 1058]
Table 2, rats 20 mg/kg, 24-30 hours after last dose
  Serum Conc.: 0.404 µM
Table 3, 20 mg/kg Hershberger
  Serum Conc.: 0.404 µM

## C[C@](O)(Cn1cc(Cl)c(Br)n1)C(=O)Nc1ccc(C#N)c(C(F)(F)F)c1 [Compound 1066, (S)-3-(3-Bromo-4-chloro-1H-pyrazol-1-yl)-N-(4-cyano-3-(trifluoromethyl)phenyl)-2-hydroxy-2-methylpropanamide]
Table 3, 20 mg/kg Hershberger
  Serum Conc.: 0.019 µM

## C[C@](O)(Cn1cc(F)cn1)C(=O)Nc1ccc(C#N)c(C(F)(F)F)c1
Table 3, 20 mg/kg Hershberger
  Serum Conc.: 0.033 µM

## C[C@](O)(Cn1ccc2cc(F)ccc21)C(=O)Nc1cnc(C#N)c(C(F)(F)F)c1 [Compound 47, (S)—N-(6-Cyano-5-(trifluoromethyl)pyridin-3-yl)-3-(5-fluoro-1H-indol-1-yl)-2-hydroxy-2-methylpropanamide]
Full length AR; first value of the pair, 1 μM
  SARD Activity Full Length % inhibition at 1 μM: 57%
Full length AR; second value of the pair, 10 μM
  SARD Activity Full Length % inhibition at 10 μM: 97%

## ARN-509 [reference compound]
AR splice variants
  SARD Activity S.V. % inhibition at 10 μM: 0%
Full length AR; single value given, concentration not specified
  SARD Activity Full Length % inhibition at 1, 10 μM: 0%
